# Screens as filed in PubChem BioAssay.
# Most compounds without a hit are left out; they make up all but 0.45% or so of the library.
# Tn7 DDE FP: inhibitors of Tn7 peptide binding to human fibrin DD(E) | AID 720508 | 370,000 compounds, 0.13% hits | FP displacement of FITC-Tn7 peptide from fibrin DD(E); 0% = median of compound wells per plate | inhibition, % at 8.3 µM | P02675;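 active = inhibition above the mean of compounds falling within the control limits plus 3 SD of them, cut at about 14% in these data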;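 note: 0% = plate median of compound wells and 100% = 10 µM Aha-Tn7 peptide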
#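 system = human fibrin DD(E) protein | quantity = DD(E) 2 µM final | medium = Tris/NaCl/CaCl2 buffer, pH 7.8 | also added = labelled Tn7 tracer, 0.1 µM | compound dosing = single point at 8.3 µM | timing = compound with protein 10 min, then 3 h after probe, room temperature | signal = FP measurement | benchmarks = Aha-Tn7 high control | repeats = one replicate per compound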
# PglD DTNB: inhibitors of Campylobacter jejuni PglD acetyltransferase. purified PglD enzyme, DTNB colorimetric CoA detection. 360,000 compounds, 0.098% hits. inhibition, % at 12.5 µM; in the data active = inhibition above about 16%, passing the limit was not always enough
# DDE Tn6 FP inh: DD(E)-Tn6 binding inhibition, primary FP screen. P02675. Fibrin DD(E) TRITC-Tn6 fluorescence polarization displacement. inhibition, % at 8.3 µM. 370,000 compounds, 0.21% hits. AID 720509;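 active = inhibition above a per-campaign cutoff: mean of compounds within control limits plus 3 SD, cut at about 15% in these data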;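 note: 0% = median of all compound wells on the plate and 100% = blocking peptide control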
# Yeast UUG start: modulators of yeast start codon fidelity, primary screen, whole organism, S. cerevisiae, single point, plate reader; S. cerevisiae UUG-firefly luciferase reporter, luminescence/redox ratio; activity score, % at 18.7 µM; actives 0.13% (n = 350,000); AID 602363, 2012;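 active = replicate mean at a twofold rise or more, about +100% in these data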;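 also: firefly luciferase made from a UUG start codon reports start codon fidelity; reporter light over untreated wells divided by growth signal over untreated wells; some hits fall short of that in this replicate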
# Tn6 DDE ctr: counter-screen hit for Tn6 peptide-fibrin DD(E) binding disruption. shares compounds with DDE Tn6 FP inh. TRITC-Tn6 fluorescence polarization displacement; 0% = median of compound wells, not DMSO. inhibition, % at 8.3 µM. 680 compounds, 2% hits. AID 720621;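 active = inhibition above the mean of test compounds lying between the control limits plus 3 SD of those, cut at about 14% in these data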;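 note: 0% = median of compound wells and 100% = wells with Aha-Tn7 blocking peptide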
# Tn6 DDE conf: DD(E)-Tn6 binding inhibition, FP confirmation. FP displacement of TRITC-Tn6 peptide from DD(E); 0% = per-plate median of test wells. inhibition, % at 8.3 µM. shares compounds with DDE Tn6 FP inh. 680 compounds, 10% hits. AID 720631;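 active = inhibition above the mean of compounds lying within the control limits plus 3 SD, cut at about 16% in these data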;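 note: 100% = high control wells holding a competing inhibitor peptide at 10 µM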
# Active calls of the source: *; nt = not tested or not shown; + = active, no number.
# Fields: Tn7 DDE FP	PglD DTNB	DDE Tn6 FP inh	Yeast UUG start	Tn6 DDE ctr	Tn6 DDE conf
[1] O=C(COC(=O)CNC(=O)c1ccc(F)cc1)NC1CCCc2ccccc21 (stereo not given)
  -1	1	0	-4	nt	nt
[2] COc1ccc(-c2nc(-c3ccccn3)nc(N3CCN(C)CC3)c2C#N)cc1
  2	-6	17*	-28	5	0
[3] COc1ccc(CN(C)C[C@@H]2Oc3c(NC(=O)C4CCOCC4)cccc3C(=O)N([C@@H](C)CO)C[C@H]2C)cc1
  nt	0	nt	10	nt	nt
[4] C[C@@H]1CCCCO[C@@H](CN(C)S(=O)(=O)c2cn(C)cn2)[C@@H](C)CN([C@@H](C)CO)C(=O)c2cc(NS(=O)(=O)c3cccs3)ccc2O1
  nt	-6	nt	17	nt	nt
[5] CCOc1cc(CNCCCN2CCOCC2)ccc1OCC(=O)Nc1cccc2ccccc12
  10	nt	18*	nt	-4	-5
[6] C[C@H]1CCCCO[C@@H](CN(C)Cc2ccc(C(=O)O)cc2)[C@@H](C)CN([C@@H](C)CO)C(=O)c2cc(NS(=O)(=O)c3ccc(Cl)cc3)ccc2O1
  nt	-3	nt	7	nt	nt
[7] Cc1ccc(S(=O)(=O)N[C@@H]2C=C[C@H](CC(=O)O)O[C@H]2CO)cc1
  nt	3	nt	-8	nt	nt
[8] Cc1ccc(S(=O)(=O)N2CCN(c3nc(C)c4c(c3C#N)CC(C)(C)OC4)CC2)cc1
  1	-4	16*	-9	0	-5
[9] Cc1nc(N2CCOCC2)c(C#N)c2c1COC(C)(C)C2
  1	nt	-4	nt	nt	nt
[10] Nc1ncnc2c1CN(Cc1ccccc1)CC2
  5	3	65*	-6	-7	-7
[11] CCN(CC)S(=O)(=O)c1ccc(C(=O)NCc2ccc3c(c2)cc(C)n3C)cc1
  4	1	80*	-11	7	-4
[12] Cc1cc2cc(CNC(=O)c3ccc(S(=O)(=O)N4CCCC4)cc3)ccc2n1C
  -4	6	60*	-20	-5	5
[13] Cc1ccc(CNC(=O)c2ccc(S(=O)(=O)N3CCCC3)cc2)cc1
  -6	3	9	-17	nt	nt
[14] O=S(=O)(Nc1ccc(Cl)cc1NS(=O)(=O)c1ccccc1)c1ccccc1
  9	3	19*	0	4	1
[15] COc1ccc(NC(=O)N(C)C[C@@H]2OCCCC[C@@H](C)Oc3ccc(NS(=O)(=O)c4ccccc4)cc3C(=O)N([C@H](C)CO)C[C@H]2C)cc1
  nt	0	nt	-4	nt	nt
[16] O=C(Cn1cc2c(n1)CCCCC2)Nc1c(F)cc(F)cc1Br
  2	2	17*	-14	-1	-5
[17] Cn1c(=O)cc2c3c(c(N4CCCCC4)ccc31)C(=O)c1ccccc1-2
  5	3	59*	17	2	23*
[18] CC1N(C)c2cc(NC(=O)c3ccco3)ccc2C1(C)C (stereo not given)
  -20	nt	+	nt	2	5
[19] CC1N(C)c2cc(NC(=O)c3ccco3)c(P(=O)(Nc3ccc([N+](=O)[O-])cc3)N3CCOCC3)cc2C1(C)C (stereo not given)
  -7	nt	-6	nt	nt	nt
[20] C[C@H](CO)N1C[C@H](C)[C@@H](CN(C)Cc2ccc3c(c2)OCO3)OCCCC[C@H](C)Oc2ccc(NC(=O)Nc3cccc4ccccc34)cc2C1=O
  nt	1	nt	-3	nt	nt
[21] CN(Cc1ccccc1)C(=O)OCc1cn(Cc2ccc(F)cc2F)nn1
  2	nt	17*	nt	6	5
[22] CO[C@H]1CN(C)C(=O)c2cc(NS(=O)(=O)c3cccc(F)c3)ccc2OC[C@@H](C)NC[C@@H]1C
  nt	3	nt	nt	nt	nt
[23] CCOc1ccc(CCNC(=O)c2cc3sc(Cl)cc3n2C)cc1OCC
  5	-3	34*	-16	8	4
[24] CCOc1ccc(CCNC(=O)c2cc3sccc3n2C)cc1OCC
  -4	-3	-6	-10	nt	nt
[25] CCC1(C)CC(CCN(Cc2ccco2)C(C)=O)(c2ccccc2)CCO1 (stereo not given)
  -1	nt	17*	nt	4	3
[26] CC1(C)CC(CCN(Cc2ccccc2)C(=O)c2ccco2)(c2ccccc2)CCO1 (stereo not given)
  5	6	-3	-25	nt	nt
[27] COc1ccccc1S(=O)(=O)N[C@H]1CC[C@@H](CC(=O)N2CCN(C)CC2)O[C@H]1CO
  nt	-1	nt	6	nt	nt
[28] C[C@@H]1CCCCO[C@H](CN(C)C(=O)Nc2ccc3c(c2)OCO3)[C@H](C)CN([C@H](C)CO)C(=O)c2cc(NC(=O)CCCN(C)C)ccc2O1
  nt	-3	nt	8	nt	nt
[29] COc1ccccc1NS(=O)(=O)c1cccc(NC(=O)Nc2ccc(Cl)cc2)c1
  -3	nt	170*	nt	10	23*
[30] COc1ccccc1NS(=O)(=O)c1cccc(NC(=O)Nc2ccccc2)c1
  -7	-1	-9	-13	nt	nt
[31] COc1ccccc1NS(=O)(=O)c1cccc(C(=O)N2CCN(C(=O)c3ccco3)CC2)c1
  5	1	16*	3	0	1
[32] COc1ccccc1NS(=O)(=O)c1cccc(C(=O)N2CCCCCC2)c1
  9	0	0	-6	nt	nt
[33] c1ccc(Nc2ccccc2Nc2ccccn2)nc1
  10	nt	16*	nt	-3	-5
[34] O=C(Nc1ccc(Cl)cn1)C1CCN(c2ncnc3c2nc2n3CCCCC2)CC1
  -1	-4	17*	-5	-3	-3
[35] CCOC(=O)CCC(NC(=O)c1ccc(NCN2C(=O)c3ccccc3C2=O)cc1)C(=O)OCC (stereo not given)
  -2	-4	2	10	nt	nt
[36] CCOC(=O)C(CNc1ccc(O)cc1)NC(=O)c1ccccc1 (stereo not given)
  1	nt	66*	nt	8	10
[37] Cc1nc2ccccc2n1-c1nc(-c2ccco2)cc(C(F)(F)F)n1
  0	3	18*	-15	-3	-5
[38] FC(F)(F)c1cc(-c2ccco2)nc(-n2cnc3ccccc32)n1
  3	-4	0	-11	nt	nt
[39] COC(=O)CCC(=O)OC1(C)C(=O)C=C2C=C(C3CC3)N(C3CCCCC3)C=C2C1=O (stereo not given)
  -4	-2	-4	-18	nt	nt
[40] COC(=O)CCC(=O)OC1(C)C(=O)C=C2C=C(C3CC3)N(C3CCCC3)C=C2C1=O (stereo not given)
  -7	5	20*	-11	-6	-9

# Exported with tabs: part of the list above
No.	mol	Tn7 DDE FP	PglD DTNB	DDE Tn6 FP inh	Yeast UUG start	Tn6 DDE ctr	Tn6 DDE conf
36	CCOC(=O)C(CNc1ccc(O)cc1)NC(=O)c1ccccc1 (stereo not given)	1	nt	66*	nt	8	10
37	Cc1nc2ccccc2n1-c1nc(-c2ccco2)cc(C(F)(F)F)n1	0	3	18*	-15	-3	-5

# Ordered by count of non-hydrogen atoms (lowest first): four of the compounds above.
# Fields: Tn7 DDE FP	PglD DTNB	DDE Tn6 FP inh	Yeast UUG start	Tn6 DDE ctr	Tn6 DDE conf
[13] Cc1ccc(CNC(=O)c2ccc(S(=O)(=O)N3CCCC3)cc2)cc1
  -6	3	9	-17	nt	nt
[23] CCOc1ccc(CCNC(=O)c2cc3sc(Cl)cc3n2C)cc1OCC
  5	-3	34*	-16	8	4
[34] O=C(Nc1ccc(Cl)cn1)C1CCN(c2ncnc3c2nc2n3CCCCC2)CC1
  -1	-4	17*	-5	-3	-3
[4] C[C@@H]1CCCCO[C@@H](CN(C)S(=O)(=O)c2cn(C)cn2)[C@@H](C)CN([C@@H](C)CO)C(=O)c2cc(NS(=O)(=O)c3cccs3)ccc2O1
  nt	-6	nt	17	nt	nt

# The list continues:
# Fields: Tn7 DDE FP	PglD DTNB	DDE Tn6 FP inh	Yeast UUG start	Tn6 DDE ctr	Tn6 DDE conf
[41] CN1C(=O)c2cc(NC(=O)Cc3cccs3)ccc2OC[C@H]2O[C@H](CC(=O)NCC3CC3)CC[C@H]21
  nt	6	nt	4	nt	nt
[42] Cn1cccc1C(=O)NC(=O)COC(=O)CCNS(=O)(=O)c1cccc(C(F)(F)F)c1
  -3	2	3	-3	nt	nt
[43] Cn1cccc1C(=O)NC(=O)COC(=O)CCNS(=O)(=O)c1ccc(Cl)cc1
  3	-6	16*	7	4	-5
[44] O=C(c1cc2ccccc2o1)N1CCCC1
  2	nt	17*	nt	2	4
[45] CC1=[N+](C)c2ccc3ccccc3c2C1(C)C
  -2	nt	55*	nt	-1	8
[46] CN(C)c1cccc(O)c1
  -4	2	34*	-8	0	3
